## Measured affinities in a library of Ab-14 heavy chain variants

Target peptide (SARS-CoV-2 spike, HR2 region): PDVDLGDISGINAS

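The starting antibody came from a phage panning campaign against this peptide. This is the validation round: designs drawn from the data on random variants, tested in the same kind of assay. Their group label is 14H_GPLM_Gen (GPLM: also part of the Gaussian process libraries; Gen: genetic algorithm; a sequence that several methods proposed may carry one label only). In AlphaSeq, yeast of one mating type display the scFv and yeast of the other type display the target. The frequency of each diploid, read from paired DNA barcodes, reflects how well the two displayed proteins bind. A regression on co-assayed BCL2-family reference pairs converts the normalised counts of each replicate to an apparent Kd. Mating was done six times.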

Parent: Ab-14, a human scFv built as VH, the linker GGGGSGGGGSGGGGS, VL. Only the CDRs of the heavy chain vary.
VH: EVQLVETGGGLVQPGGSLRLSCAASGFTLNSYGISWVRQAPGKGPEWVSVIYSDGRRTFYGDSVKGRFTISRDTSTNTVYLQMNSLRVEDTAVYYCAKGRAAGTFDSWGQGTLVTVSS
VL: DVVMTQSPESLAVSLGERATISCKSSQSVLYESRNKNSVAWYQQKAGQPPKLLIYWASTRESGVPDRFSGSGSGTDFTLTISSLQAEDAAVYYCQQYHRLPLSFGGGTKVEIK

Each variant is given by its three heavy chain CDRs, as the data file delimits them; those of the parent are GFTLNSYGIS, VIYSDGRRTFYGDSVK, GRAAGTFDS.
Values are log10 of the apparent Kd in nM; lower means stronger binding.
"ND" marks a missing value. The strain was present, yet no cells mated with the target were sequenced in that replicate, which points to weak or no binding.
As a blank, each scFv also met three strains without target: over all heavy chain designs, 1% of these pairings were detected, typically at 2.08 and seldom below 0.84. For each scFv, signals with the empty controls are counted beside the result, with their mean in brackets.
The authors' rule: three or more of the six replicates give a measured affinity, fewer mean a poor binder.
A sequence measured in both rounds can read differently, since the two assays cover different ranges.

CDR-H1,CDR-H2,CDR-H3,"log10 Kd, replicates",control signals
GFWLNDYGIS,VIYSDGRRTFYGDSVK,GRTAGTFDS,1.55 1.49 0.90 0.51 0.93 1.03,0 of 18
GFELNSYGIS,VIYSDGRRTFYSDSVK,GRTAGTFDS,0.26 -0.05 0.62 0.12 0.11 0.34,0 of 18
GFSLNEYGIS,VIYSDGRRTFYGDSVK,GRHAGTFDS,0.35 0.53 0.33 0.38 0.24 0.63,0 of 18
GFSLNSYGIS,VIYSDGRRTFYGDDVK,GSAAGTFDS,0.13 0.09 0.16 0.18 0.38 0.93,0 of 18
GFELNSYGIS,VIYSDGRRTFYCDSVK,GRTAGTFDS,2.22 2.10 1.48 1.39 2.24 1.18,0 of 18
GFTLDSYGIS,VIYSDGRRTFYGDSVK,GRVAGTFDS,0.96 0.21 0.94 -0.15 0.27 0.26,0 of 18
GFELNSYGIS,VIYSDGRRTFYADSVK,GRVAGTFDS,0.57 -0.09 0.20 -0.06 0.50 1.21,0 of 18
GFDLNSYGIS,VIYSDGRRTFYGDSVK,GKQAGTFDS,0.72 0.40 0.50 0.38 0.59 0.48,0 of 18
GFSLNSYGIS,VIYSDGRRTFYEDSVK,GEAAGTFDS,0.56 0.23 0.17 0.05 0.11 0.42,0 of 18
GFDLNSYGIS,VIYSDGRRTFYADSVK,GRIAGTFDS,1.33 0.13 0.38 -0.09 0.29 -0.09,0 of 18
GFSLNDYGIS,VIYSDGRRTFYGDSVK,GRTAGTFDF,1.21 1.23 0.53 0.72 ND 1.29,0 of 18
GFTLNSYGIS,VIYSDGRRTFYADDVK,GRVAGTFDS,0.24 -0.07 0.15 -0.17 -0.20 0.17,1 of 18 (2.92)
GFTLNSYGIS,VIYSDGRRTFYGDSVK,GEAAGTFDS,ND 1.29 0.91 1.81 1.46 2.53,0 of 18
GFTLNSYGIS,VIYSDGRRTFYADHVK,GEAAGTFDS,0.92 1.64 2.01 0.93 0.84 ND,0 of 18
GFVLNSYGIS,VIYSDGRRTFYADSVK,GQTAGTFDS,1.88 1.64 1.50 1.19 1.76 1.65,1 of 18 (2.62)
GFSLESYGIS,VIYSDGRRTFYGDSVK,GQAAGTFDS,1.31 0.34 0.37 0.53 0.70 0.60,0 of 18
GFWLNEYGIS,VIYSDGRRTFYGDSVK,GRHAGTFDS,ND 1.87 ND ND ND ND,1 of 18 (1.73)
GFQLNSYGIS,VIYSDGRRTFYIDSVK,GKAAGTFDS,ND ND ND ND ND 1.14,0 of 18
GFKLNSYGIS,VIYSDGRRTFYADSVK,GKAAGTFDS,ND 1.92 1.44 1.40 1.28 1.46,0 of 18
GFTLNEYGIS,VIYSDGKRTFYGDSVK,GQAAGTFDL,0.65 0.47 0.26 0.36 0.47 0.46,1 of 18 (2.20)
HFSLNSYGIS,VIYSDGRRTFYADSVK,GRAAGTFDS,2.14 1.80 1.07 1.54 1.17 1.64,0 of 18
GDTLNSYGIS,VIYADGRRTFYGDSVK,GRAAGTFDS,ND ND ND ND 0.01 ND,0 of 18
GFTLNEYGIS,VIYSDGRRTFYGDSVK,GQTAGTFDS,0.75 0.20 -0.14 -0.42 0.46 0.01,0 of 18
GFTLNSYGIS,VIYADGRRTFYGDSVK,GKEAGTFDS,-0.35 -0.65 -0.82 -0.79 -0.93 -0.53,0 of 18
GFTLNSYGIS,VIYSDGQRTFYGDSVK,GRVAGTFDS,ND ND ND ND ND 2.28,0 of 18
GFTLNSYGIS,VIYADGRRTFYGDSVK,GRAAGTFDN,0.60 0.30 -0.09 0.36 0.27 0.44,0 of 18
GFTLNSYGIS,VIYSDGRRTFYSDSVK,GQEAGTFDS,0.17 0.47 0.30 0.09 0.16 -0.03,0 of 18
PFSLNSYGIS,VIYSDGRRTFYADSVK,GRTAGTFDS,1.11 1.00 1.30 2.37 0.41 1.51,0 of 18
GFSLNSYGIS,VIYSDGRRTFYGDMVK,GEAAGTFDS,0.59 0.70 0.88 0.18 0.90 0.83,1 of 18 (1.04)
GFTLDSYGIS,VIYSDGRRTFYIDSVK,GRAAGTFDS,ND 1.04 ND ND ND 2.31,0 of 18
GFSLNDYGIS,VIYSDGRRTFYGDSVK,GREAGTFDS,0.48 -0.66 -0.69 -0.09 -0.48 -0.77,0 of 18
GFSLNSYGIS,VIYADGRRTFYGDQVK,GQAAGTFDS,-0.49 -0.23 -0.68 -0.34 -0.10 -0.95,0 of 18
HFSLNSYGIS,VIYSDGRRTFYADSVK,GRTAGTFDS,0.81 0.40 0.49 0.22 0.53 0.63,0 of 18
GFTLNSYGIS,VIYSDGRRTFYSDSVK,GQVAGTFDS,0.14 -0.09 -0.18 0.00 -0.03 0.28,1 of 18 (2.36)
GFSLNDYGIS,VIYSDGRRTFYVDSVK,GRTAGTFDS,-0.16 0.19 -0.07 -0.48 -0.45 -0.63,0 of 18
GFELNMYGIS,VIYSDGRRTFYADSVK,GQAAGTFDS,0.52 0.30 0.89 0.52 0.66 0.55,3 of 18 (2.18)
GFSLNNYGIS,VIYSDGKRTFYGDSVK,GRTAGTFDS,0.75 0.71 0.64 0.52 0.59 0.44,0 of 18
GFTLLSYGIS,VIYADGRRTFYGDSVK,GRAAGTFDS,ND 1.82 ND ND ND ND,0 of 18
GFDLNSYGIS,VIYSDGRRTFYGDSVK,GLTAGTFDS,ND ND 0.47 0.77 0.75 0.31,0 of 18
GFTLNSYGIS,VIYSDGRRTFYGDSVK,GRVAGTFDQ,ND ND -1.56 -0.77 -1.77 -0.81,0 of 18
GFNLNSYGIS,VIYSDGRRTFYADSVK,GTAAGTFDS,0.60 0.52 0.15 0.70 0.13 0.73,0 of 18
GFQLNSYGIS,VIYSDGRRTFYKDSVK,GQAAGTFDS,ND 1.49 0.98 1.27 2.59 1.11,0 of 18
GFSLNSYGIS,VIYSDGRRTFYADSVK,GNVAGTFDS,-0.04 -0.45 -0.29 -0.33 0.14 0.14,1 of 18 (1.45)

For reference, 5 entries of the list once more:

| CDR-H1 | CDR-H2 | CDR-H3 | log10 Kd, replicates | control signals |
|---|---|---|---|---|
| GFSLESYGIS | VIYSDGRRTFYGDSVK | GQAAGTFDS | 1.31 0.34 0.37 0.53 0.70 0.60 | 0 of 18 |
| GDTLNSYGIS | VIYADGRRTFYGDSVK | GRAAGTFDS | ND ND ND ND 0.01 ND | 0 of 18 |
| GFELNSYGIS | VIYSDGRRTFYCDSVK | GRTAGTFDS | 2.22 2.10 1.48 1.39 2.24 1.18 | 0 of 18 |
| PFSLNSYGIS | VIYSDGRRTFYADSVK | GRTAGTFDS | 1.11 1.00 1.30 2.37 0.41 1.51 | 0 of 18 |
| GFQLNSYGIS | VIYSDGRRTFYKDSVK | GQAAGTFDS | ND 1.49 0.98 1.27 2.59 1.11 | 0 of 18 |

Reference: Li et al. 2023, doi:10.1038/s41467-023-39022-2. File: FLAb, binding data.